Here are results for one compound from PubChem BioAssay AID743261 (The Scripps Research Institute Molecular Screening Center, 2014).

Protein sequences, listed by entry. Tags and fused reporters are not part of them.
UniProt Q01970, whole entry: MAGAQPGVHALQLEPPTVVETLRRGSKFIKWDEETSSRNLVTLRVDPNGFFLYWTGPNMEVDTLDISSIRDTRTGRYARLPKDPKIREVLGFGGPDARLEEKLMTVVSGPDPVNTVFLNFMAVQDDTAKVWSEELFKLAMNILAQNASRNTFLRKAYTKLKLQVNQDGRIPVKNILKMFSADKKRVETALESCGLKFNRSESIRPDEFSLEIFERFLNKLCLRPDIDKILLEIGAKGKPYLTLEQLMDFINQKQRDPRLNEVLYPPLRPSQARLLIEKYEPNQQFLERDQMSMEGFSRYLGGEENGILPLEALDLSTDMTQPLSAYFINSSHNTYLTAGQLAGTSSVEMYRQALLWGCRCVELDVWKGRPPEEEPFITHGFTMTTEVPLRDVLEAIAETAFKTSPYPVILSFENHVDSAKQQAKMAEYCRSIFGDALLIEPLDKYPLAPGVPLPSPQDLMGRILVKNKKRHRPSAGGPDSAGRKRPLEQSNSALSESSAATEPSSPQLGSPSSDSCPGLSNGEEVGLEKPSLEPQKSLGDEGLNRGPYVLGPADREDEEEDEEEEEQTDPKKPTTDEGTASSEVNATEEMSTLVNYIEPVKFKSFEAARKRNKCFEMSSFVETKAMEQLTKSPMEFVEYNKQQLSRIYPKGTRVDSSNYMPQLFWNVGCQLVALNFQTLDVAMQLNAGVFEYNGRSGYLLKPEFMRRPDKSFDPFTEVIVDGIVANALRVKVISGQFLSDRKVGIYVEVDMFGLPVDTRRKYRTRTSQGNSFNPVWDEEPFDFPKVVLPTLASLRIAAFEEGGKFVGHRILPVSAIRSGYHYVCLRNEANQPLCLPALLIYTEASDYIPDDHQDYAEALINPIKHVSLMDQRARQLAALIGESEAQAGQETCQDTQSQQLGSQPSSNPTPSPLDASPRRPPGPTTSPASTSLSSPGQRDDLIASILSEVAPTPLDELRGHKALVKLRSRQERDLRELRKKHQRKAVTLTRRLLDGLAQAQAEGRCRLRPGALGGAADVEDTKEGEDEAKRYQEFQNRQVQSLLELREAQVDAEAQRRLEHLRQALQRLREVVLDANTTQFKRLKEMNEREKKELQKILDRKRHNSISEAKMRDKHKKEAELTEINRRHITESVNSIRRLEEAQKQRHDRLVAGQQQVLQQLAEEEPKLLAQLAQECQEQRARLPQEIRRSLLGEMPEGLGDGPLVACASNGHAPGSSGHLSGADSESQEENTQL

Only a part is listed here, and it is no random draw. Some tests of the compounds listed are not included; inactive here does not mean inactive elsewhere. The source made the active and inactive calls. Rule as the data show it: active = inhibition above about 11%; inactive = the rest.

The assay addresses 1-phosphatidylinositol 4,5-bisphosphate phosphodiesterase beta-3 (Homo sapiens) (UniProt Q01970). In words: retest of human PLCB3 enzyme blockers – biochemical, fluorescence, purified enzyme, confirmation (AID 743261). To be noted: purified PLC-beta3, fluorogenic substrate fluorescence; at 12.3 µM; active compounds read high.
As a reminder, the inhibition is the change of the read-out against control, counted positive when it falls. With `CCN1CCCC(OC(=O)C2(O)c3ccccc3C=Cc3ccccc32)C1` (stereo unspecified), the inhibition was inactive: -0.78%.
